We go through 64 compounds from PubChem BioAssay AID602252 (Broad Institute, 2012).

Molecules are shown by their SMILES. The entries are a selection whose mix differs from that of the whole data set. Calls of active or inactive are those of the source.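 Rule for the calls: active = mean inhibition of at least 30% with at least half of replicates also reaching 30%; inconclusive = no clear call, values can overlap the other calls; inactive = the rest.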

The test deals with Golgi-associated PDZ and coiled-coil motif-containing protein (Homo sapiens) (UniProt Q9HD26). In words: blockade of CAL PDZ-reporter peptide interaction – biochemical, fluorescence polarization, untagged CAL PDZ, HTS, primary screen (AID 602252).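 Note: 0% = DMSO neutral control and 100% = excess unlabeled competitor peptide PRC23.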 To be noted: purified CAL PDZ, TMR-peptide fluorescence polarization, 1 h; at 24.9 µM; active compounds read high.
In the case of `O=C(O)COc1ccc([As](=O)(O)O)cc1[N+](=O)[O-]`, the inhibition was inactive: -2.1%.
Next, `Nc1ccccc1[As](=O)(O)c1ccccc1`: inactive: -4.47%; `CS(=O)(=O)c1cc([N+](=O)[O-])c2no[n+]([O-])c2c1`: inactive: -0.617%; `O=P(Nc1nccs1)(c1ccccc1)c1nc2ccccc2s1` (centres undefined): inactive: -0.376%.
On to `O=P(Nc1nccs1)(Oc1ccccc1)Oc1ccccc1`, for which the inhibition is inactive: 5.17%.
Next, `CCOP1(=S)c2c(C)nn(CCC#N)c2N=C(c2ccccc2F)N1C` (centres undefined): inactive: -1.93%; `CN(C(=O)Cc1ccc(Cl)c(Cl)c1)[C@H]1CC[C@@]2(CCCO2)C[C@@H]1N1CCCC1`: inactive: -5.61%.
Take `O=[N+]([O-])c1ccc2c(c1)nnn2O`: the inhibition was inactive: 5.89%.
For `CN(C(=O)Cc1ccccc1)[C@@H]1CC[C@]2(CCCO2)C[C@H]1N1CCCC1`, the inhibition is inactive: 2.34%.
`CCOP1(=S)c2c(C)nn(CCC#N)c2N=C(c2ccc(F)cc2)N1C` (centres undefined): the inhibition was inactive: -2.6%.
For `N#CCCN(C(=O)COC(=O)C(O)(c1ccccc1)c1ccccc1)c1ccc(F)cc1`, the inhibition was inactive: -2.08%.
As for `NC(=O)Nc1ccc([As](=O)(O)O)cc1`, the inhibition was inactive: -2.11%.
Consider `O=[As](O)(c1cccc(O)c1)c1cccc(O)c1`, for which the inhibition was inactive: -1.35%.
Under `Cc1cccc(OCC(=O)OC2CN3CCC2CC3)c1` (centres undefined) stands inactive: 0.33%; under `COc1cc(C(=O)NCC2(N3CCOCC3)CCCCC2)cc(Cl)c1OC(C)C`, inactive: 1.16%.
`O=[As](O)(O)c1cccnc1`: the inhibition is inactive: -4.02%.
Regarding `CCOP(=O)(Nc1cccc2ccccc12)OCC`, the inhibition is inactive: -0.742%.
Turning to `COc1cc(C2NCCC3(OCCO3)C2(C)C)cc(OC)c1OC` (centres undefined), the inhibition is inactive: -1.38%.
For the compound `CCCOP(=S)(Nc1nc(N)cc(=O)[nH]1)OCCC`, the inhibition was inactive: 5.89%.
Regarding `Cc1ccc(NCCc2c([N+](=O)[O-])cc([N+](=O)[O-])cc2[N+](=O)[O-])cc1`, the inhibition was inactive: -2.58%.
`Nc1cccc2c([As](=O)(O)O)cccc12`: the inhibition was inactive: -5.91%.
In the case of `CC(C)(C)C(=O)NC(Sc1ncccn1)C(Cl)(Cl)Cl` (centres undefined), the inhibition was inactive: -2.37%.
Turning to `Clc1n[nH]nc1-c1nn[nH][15n]1`, the inhibition is inactive: 0.448%.
As for `CCOP(=O)(Nc1ccc(C)cn1)OCC`, the inhibition is inactive: 11.5%.
As for `CCOP(=O)(NC(=NC(C)c1ccccc1)NC(C)c1ccccc1)OCC` (centres undefined), the inhibition is inactive: -16.8%.
In the case of `CCC1=CC2Cc3nc4ccc(Cl)cc4c(N)c3C(C1)C2` (centres undefined), the inhibition was inactive: -11.6%.
Take `O=P1(Nc2ccccn2)COc2ccccc2OC1`: the inhibition is inactive: 3.51%.
On to `CC1(CBr)Cn2c(nc3ccccc3c2=O)S1` (centres undefined), for which the inhibition is inactive: -0.565%.
Turning to `CN(C(=O)Cc1ccc(Cl)c(Cl)c1)[C@@H]1CCCC[C@H]1N1CCCC1`, the inhibition was inactive: -2.85%.
Take `COc1ccccc1CNC(=O)COC(=O)C(O)(c1ccccc1)c1ccccc1`: the inhibition is inactive: 0.518%.
Turning to `CCCC1OP(=O)(Nc2ccccc2)OCC1CC` (centres undefined), the inhibition is inactive: -2.47%.
Next, `O=C(/C=C/c1ccccc1)OC1CN2CCC1CC2` (centres undefined): inactive: -4.31%.
Turning to `CN(C)C1(CNC(=O)c2ccc(S(C)(=O)=O)cc2)CCCCC1`, the inhibition was inactive: 1.12%.
Consider `Cc1ccc(C(=O)OC2CN3CCC2CC3)cc1` (centres undefined), for which the inhibition is inactive: -1.78%.
For the compound `CC1CCC(C(C)C)C(OP(=O)(Nc2ccccn2)c2ccccc2)C1` (centres undefined), the inhibition was inactive: -0.537%.
As for `Cc1nn(-c2ccccc2)c2c1P(=O)(N1CCOCC1)N(C)C(c1ccccc1)=N2` (centres undefined), the inhibition was inactive: 1.17%.
Regarding `NS(=O)(=O)c1cccc(NC(=O)COC(=O)C(O)(c2ccccc2)c2ccccc2)c1`, the inhibition is inactive: -1.27%.
On to `O=P1(Nc2ccc(Br)cn2)COc2ccccc2OC1`, for which the inhibition was inactive: 0.022%.
Consider `Cc1ccc(OCC(=O)OC2CN3CCC2CC3)cc1` (centres undefined), for which the inhibition was inactive: -6.97%.
Turning to `O=[As](O)(c1cccs1)c1cccs1`, the inhibition was inactive: -3.14%.
Under `Nc1cccc([As](=O)(O)c2ccccc2)c1` stands inactive: 2.14%; under `O=P1(Nc2ncccn2)COc2ccccc2OC1`, inactive: -0.27%; under `Cc1cc(SC(NC(=O)c2ccccc2)C(Cl)(Cl)Cl)nc(C(C)C)n1` (centres undefined), inactive: 4.79%.
Under `CCCCOc1ccc(C(=O)NCC2(N3CCCCC3)CCCCC2)cc1OC` stands inactive: -6.11%; under `CC1CCNP(=O)(N(CCCl)CCCl)O1` (centres undefined), inactive: 2.81%; under `CCOC(=O)Nc1ccc([As](=O)(O)O)c(O)c1`, inactive: -4.11%.
As for `O=[N+]([O-])c1ccc(Nc2ccc(Oc3ccc([N+](=O)[O-])cc3[N+](=O)[O-])cc2)c([N+](=O)[O-])c1`, the inhibition is active: 69.1%.
As to `Cc1cc(SC(NC=O)C(Cl)(Cl)Cl)ncn1` (centres undefined), the inhibition is inactive: -2.27%.
For the compound `O=P(Nc1ccccn1)(c1cccc2ccccc12)c1cccc2ccccc12`, the inhibition is inactive: 0.754%.
Under `CCOC(=O)Nc1cccc([As](=O)(O)O)c1` stands inactive: -3.07%; under `O=C(Nc1ccncc1[N+](=O)[O-])c1ccc([N+](=O)[O-])cc1[N+](=O)[O-]`, inactive: 6.39%; under `O=C(COc1ccccc1)OC1CN2CCC1CC2` (centres undefined), inactive: -1.21%.
Next, `COP1(=S)c2c(C)nn(CCC#N)c2N=C(c2ccc(F)cc2)N1C` (centres undefined): inactive: -1.31%; `CCC(C)N(CC(C)C)C(=S)SC(NC(C)=O)C(Cl)(Cl)Cl` (centres undefined): inactive: -1.64%; `O=C(OC1CN2CCC1CC2)c1cccc([N+](=O)[O-])c1` (centres undefined): inactive: -2.1%.
With `COc1cc(I)ccc1[As](=O)(O)O`, the inhibition is inactive: -3.13%.
With `COc1ccc2nc(NP(=O)(c3ccccc3)c3ccccc3)sc2c1`, the inhibition is inactive: 1.12%.
For `O=P1(N(CCCl)CCCl)OCCCN1CCCl` (centres undefined), the inhibition is inactive: -2.81%.
As for `O=P1(N(CCCl)CCCl)Nc2ccccc2N1`, the inhibition was inactive: 1.96%.
Consider `Cc1cc(=O)[nH]c(N[N+](=O)[O-])n1`, for which the inhibition is inactive: -5.35%.
As for `O=C(OC1CN2CCC1CC2)C12CC3CC(CC(C3)C1)C2` (centres undefined), the inhibition is inactive: -6.54%.
`Cc1c2c(nc3ccccc13)SC(C(Cl)Cl)C2` (centres undefined): the inhibition is inactive: 1.93%.
`COc1ccc(N/C(=N/P(=O)(N2CCOCC2)N2CCOCC2)N2CCOCC2)cc1`: the inhibition was active: 50.7%.
As to `O=[N+]([O-])c1cc(Oc2ccc([N+](=O)[O-])cc2C(F)(F)F)cc([N+](=O)[O-])c1`, the inhibition is inactive: 1.24%.

Broadly, the inhibition is the drop in the measured response relative to a control, in per cent.
